The list is not random: actives were taken first. Their share in the collection is about 1.3%.
miR-21 reporter: raises the signal of a miR-21 reporter | HeLa miR-21 FLuc reporter, luciferase, 48 h | Potency, µM (highest dose often 38.3 µM), inactives show at the highest dose reporter change, positive = more light | 340,000 tested, under 10 active | AID 2288; active = well fitted rising curve with a large enough effect; inconclusive = small, poorly fitted or top-dose-only effect; inactive = no such curve, though single readings can be large or run the other way;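 note: % of control where 0% means no effect; miR-21 action dims this reporter so a rising signal means less miR-21 action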
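Using DMEM plus 10% FBS, HeLa miR-21-FLuc cells are incubated with test compounds (final up to about 40uM) for 48 hours; firefly luciferase signal is then imaged following reagent-mediated lysis.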
Giardia kill: kills Giardia lamblia. Giardia lamblia trophozoite viability. activity change, % at 7.66 µM, hits read low. 340,000 tested, 0.15% active. AID 540267; in the data active means activity change below about -80%; inconclusive means between about -30% and that limit;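 further: parasites exposed to compound for two days anaerobically before the ATP read; on the % scale 0 is the no-effect control and ±100 the full control effect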
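Giardia lamblia trophozoites (100 cells/well) were incubated with compounds for 48 h at 37 deg C under anaerobic conditions. Viability was read as ATP content by one-step luminescence after 15-30 min at room temperature.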
PINK1 expr mod: PINK1 expression modulation; 410,000 tested, 0.2% active; PINK1 immunofluorescence, high-content cytometry, 24 h; Potency, µM (titrated, usually from 76.6 µM), inactives show at the highest dose activation (PINK1 increase), hits mostly activators; active means well fitted activation curve with a large enough effect; inconclusive means small, poorly fitted or top-dose-only effect; cell line not stated here; further: potency means the concentration at half of the fitted maximal effect; % of control where 0% means no effect; nearly all actives have a fitted effect of over 65% in size
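PINK1 protein level read as immunofluorescence by microplate cytometer in a fixed, stained stable cell line after 24 h exposure to five compound concentrations, with CCCP as control.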
ALOX12 inh: blocks human arachidonate 12S-lipoxygenase | Potency, µM (top dose mostly 108 µM), without a hit: at the highest dose activity change, negative = inhibition, actives largely listed as inhibitors | 580,000 tested, 1.1% active | P18054 | purified 12hLO, xylenol orange hydroperoxide absorbance | AID 1671190; further: potency means the concentration at half of the fitted maximal effect; on the % scale 0 is the no-effect control and ±100 the full control effect
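Purified human 12hLO (150 nM final) in 25 mM Hepes, 0.01% Triton X-100, pH 7.0 was preincubated 15 min at room temperature with compound. Then 40 uM arachidonic acid was added, 30 min. Hydroperoxide was read by Fe-XO absorbance ratio 573/405 nm.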
ERG Ets-DNA blk: blocks human ERG Ets domain binding to DNA. fluorescence polarization, His-ERG Ets domain / labelled DNA. Potency, µM (highest dose often 76.9 µM), inactives show at the highest dose FP activity, negative = inhibition, hits mostly inhibitors. 370,000 tested, 0.028% active; active means well fitted inhibition curve with a large enough effect in the polarisation, with a control signal flat; inconclusive means small, poorly fitted or top-dose-only effect, or effect the other way, or a change in a side signal; inactive means no such curve, though single readings can be large or run the other way; the % refers to the polarisation;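 further: polarization taken with two DNA probes labelled with fluorescein and Texas red; potency means the concentration at half of the fitted maximal effect; % of control where 0% means no effect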
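His-tagged ERG Ets domain (1 uM in the protein solution; 300mM KCl, 50mM Tris-HCl, 1mM EDTA, 1mM DTT, pH 7.5) received compound, then a probe mix of 5 nM fluorescein-DNA and 100nM Texas-615-DNA. Fluorescence polarization was read for both dyes.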
PTHR1 agonist: agonists of human PTHR1 parathyroid hormone receptor | Q03431 | HEK293 GP2 PTHR1 cells, GloSensor cAMP luminescence, 1 h | Potency, µM (top dose mostly 115 µM), for the others: at the highest dose activation, most hits filed as activators | 410,000 tested, 0.075% active; further: potency means the concentration at half of the fitted maximal effect; nearly all actives have a fitted effect of over 55% in size
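HEK-293-derived GP2 cells expressing PTHR1 and a GloSensor cAMP reporter, 3,000/well, plated overnight, given luciferin plus IBMX (each 0.5 mM as added) for 1 h at 37 °C, then compound for 1 h at 37 °C. Luminescence was read after 15 min at room temperature.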
Starred values were filed as active, the others as inactive; i = inactive; ? = inconclusive; / = no result given; ! = a repeat was not active; [ ] = remark or other dose. Unless noted, the call rests on the fitted dose curve; in most records, active means well fitted curve in the direction sought with a large enough effect; inconclusive means small, poorly fitted or top-dose-only effect, or another doubt; inactive means no such curve, though single readings can be large; an effect the other way counts as inactive or inconclusive.

Labels used below – A = miR-21 reporter; B = Giardia kill; C = PINK1 expr mod; D = ALOX12 inh; E = ERG Ets-DNA blk; F = PTHR1 agonist
Cc1ccc(C(=O)NC(=S)Nc2ccc(S(=O)(=O)N(C)c3ccccc3)cc2)cc1
  A: -9%; B: 17; C: 8%; D: 32µM*; E: -2%; F: -20%
CN(c1ccccc1)S(=O)(=O)c1ccc(NC(=S)NC(=O)c2ccccc2)cc1
  A: -10%; B: 12; C: -3%; D: 14µM*; E: 6%; F: -17%
COc1nccnc1NS(=O)(=O)c1ccc(NC(=S)NC(=O)c2ccccc2)cc1
  A: -22%; B: -28; C: 1%; D: 35µM*; E: -10%; F: i
COc1nccnc1NS(=O)(=O)c1ccc(NC(=S)NC(=O)/C=C/c2ccccc2)cc1
  A: 0%; B: -10; C: 1%; D: -16%; E: 2%; F: -87%
O=C(NC(=S)Nc1ccc(S(=O)(=O)N2CCCCC2)cc1)c1ccccc1
  A: -7%; B: 7; C: 3%; D: 13µM*; E: 1%; F: -21%
CCOc1ccc(NC(=O)C(C)Oc2ccc3ccc(=O)oc3c2)cc1 (stereo not given)
  A: /; B: /; C: /; D: 0%; E: /; F: /
CCOC(=O)c1cccc(NC(=O)CCn2nc(C)c(S(=O)(=O)N3CCCC3)c2C)c1
  A: /; B: /; C: /; D: -12%; E: /; F: /
CCCCn1c(=O)[nH]c(=O)c2c1nc(COc1cc(Cl)ccc1Cl)n2CCC
  A: /; B: /; C: /; D: -9%; E: /; F: /
O=S(=O)(c1ccc(NC(=S)NCCC(c2ccccc2)c2ccccc2)cc1)N1CCOCC1
  A: ?; B: 8; C: ?; D: 45µM*; E: 19%; F: i
CNC(=O)c1sc2nc(-c3ccc(OC)cc3)cn2c1C
  A: -80%; B: -4; C: -1%; D: -14%; E: 1%; F: -25%
COc1ccc(-c2cn3c(C)c(C(=O)Nc4cc(NC(C)=O)ccc4OC)sc3n2)cc1
  A: 10%; B: 4; C: 10µM*; D: -4%; E: -2%; F: i
CCOC(=O)c1oc2cc(OS(C)(=O)=O)ccc2c(=O)c1-c1ccc(OC)cc1
  A: /; B: /; C: /; D: -7%; E: /; F: /
CCC(C)SSC(C)CC (stereo not given)
  A: /; B: /; C: /; D: 15%[176 µM]; E: /; F: /
CCC(C)SSc1ncc[nH]1 (stereo not given)
  A: /; B: /; C: /; D: 19µM*; E: /; F: /
Cc1nc([N+](=O)[O-])cn1-c1nc2ccccn2c1[N+](=O)[O-]
  A: -5%; B: -88*; C: 3%; D: 0%; E: 12%; F: i
O=C(Nc1ccc2c(c1)OCCO2)c1ccc(Br)c(S(=O)(=O)N2CCOCC2)c1
  A: 25%; B: -4; C: 1%; D: 4%; E: -1%; F: -17%[57.5 µM]
O=C(Oc1ccc2c(c1)OCO2)c1ccc(Br)c(S(=O)(=O)N2CCOCC2)c1
  A: 1%; B: 2; C: 11µM*; D: 8%; E: 0%; F: i
COc1ccc(N(CN2C(=O)C3CCCCC3C2=O)C(=O)c2ccco2)cc1 (stereo not given)
  A: -5%; B: 9; C: -4%; D: ?; E: -12%; F: i
O=c1cc(-c2ccccc2)oc2cc(OCc3ccccc3)cc(O)c12
  A: -1%; B: 13; C: 15%; D: 9%; E: 5%; F: -9%
O=c1cc(-c2ccc(OCc3ccccc3)cc2)oc2cc(OCc3ccccc3)cc(OCc3ccccc3)c12
  A: /; B: 23; C: 0%; D: 35µM*; E: -2%; F: -4%
Cc1ccc(NC(=O)Nc2c(C)n(C)n(-c3ccccc3)c2=O)cc1C
  A: 0%; B: 13; C: -1%; D: 3%; E: 0%; F: i
Cc1ccc(S(=O)(=O)N2CCN(Cc3ccccn3)CC2)cc1
  A: 0%; B: 1; C: 3%; D: -13%; E: -1%; F: -2%
CCCCC12CN3CC(C)(CN(C1)C3c1ccc([N+](=O)[O-])o1)C2=O (stereo not given)
  A: 6%; B: ?; C: 4%; D: 0%; E: 6%; F: -24%
CC12CN3CC(C)(CN(C1)C3c1ccc([N+](=O)[O-])o1)C2=O (stereo not given)
  A: 0%; B: 7; C: -1%; D: 4%; E: -1%; F: i
CCC12CN3CC(CC)(CN(C1)C3c1ccc([N+](=O)[O-])o1)C2=O (stereo not given)
  A: 6%; B: -86*; C: -1%; D: 3%; E: 4%; F: i
CCCC12CN3CC(C)(CN(C1)C3c1ccc([N+](=O)[O-])o1)C2=O (stereo not given)
  A: 3%; B: -87*; C: -1%; D: -10%; E: 6%; F: -44%
O=c1[nH]c(=S)[nH]cc1Oc1ccc(Br)cc1Br
  A: /; B: -3; C: -1%; D: 11µM*; E: 14%; F: 9%
CCc1ccc(CNc2ccc(N3CCN(C(C)=O)CC3)cc2)cc1
  A: 11%; B: 48; C: 1%; D: 32µM*; E: 5%; F: 19%
O=[N+]([O-])c1ccc2nc(-c3ccc(Cl)cc3)[nH]c2c1
  A: -30%; B: -4; C: ?; D: 20µM*; E: -1%; F: -42%
Cc1ccc(-c2nc3ccc([N+](=O)[O-])cc3[nH]2)cc1
  A: 20%; B: -15; C: 2%; D: ?; E: 4%; F: -39%

An excerpt from above in order of the PTHR1 agonist value, lowest first.
Structure | miR-21 reporter | PINK1 expr mod | ALOX12 inh | ERG Ets-DNA blk | PTHR1 agonist
CCCC12CN3CC(C)(CN(C1)C3c1ccc([N+](=O)[O-])o1)C2=O (stereo not given) | 3% | -1% | -10% | 6% | -44%
O=c1cc(-c2ccccc2)oc2cc(OCc3ccccc3)cc(O)c12 | -1% | 15% | 9% | 5% | -9%
O=c1[nH]c(=S)[nH]cc1Oc1ccc(Br)cc1Br | / | -1% | 11µM* | 14% | 9%

Whole records, looked up by structure. Screens in order: miR-21 reporter | Giardia kill | PINK1 expr mod | ALOX12 inh | ERG Ets-DNA blk | PTHR1 agonist
`CCCC12CN3CC(C)(CN(C1)C3c1ccc([N+](=O)[O-])o1)C2=O` (stereo not given) is entered as 3% | -87* | -1% | -10% | 6% | -44%
`O=[N+]([O-])c1ccc2nc(-c3ccc(Cl)cc3)[nH]c2c1` is entered as -30% | -4 | ? | 20µM* | -1% | -42%

Going on with the list.
Labels used below – A = miR-21 reporter; B = Giardia kill; C = PINK1 expr mod; D = ALOX12 inh; E = ERG Ets-DNA blk; F = PTHR1 agonist
CN1C[C@H](NC2CCOCC2)CCC[C@@H](C(=O)NCc2cc(F)cc(F)c2)CC1=O
  A: /; B: /; C: /; D: 1%[176 µM]; E: /; F: /
Cc1nc(-c2ccc(C#N)cc2)cs1
  A: -11%; B: -1; C: 1%; D: 32µM*!; E: 3%; F: -3%
CCOc1cc(C(=O)N(C)Cc2cc3cc(OC)ccc3[nH]c2=O)cc(OCC)c1OCC
  A: -5%; B: -3; C: 0%; D: 2µM*!; E: -2%; F: -3%[57.5 µM]
CCOc1ccccc1C(=O)N(C)Cc1cc2cc(OC)ccc2[nH]c1=O
  A: -19%; B: -22; C: 1%; D: 10%; E: 3%; F: i
COC(=O)c1c(C)cc(O)cc1O
  A: /; B: -5; C: 1%; D: -2%; E: -10%; F: -24%
Cc1cc(OC(=O)c2c(C)cc(OC(=O)c3c(C)cc(O)cc3O)cc2O)cc(O)c1C(=O)O
  A: /; B: 46; C: 6%; D: 35µM*; E: -4%; F: -22%
CCCCNC(=S)NC1CCCC1
  A: -5%; B: 1; C: 1%; D: -15%; E: 4%; F: -1%
CC(C)OCCCNC(=S)NC1CCCC1
  A: /; B: /; C: /; D: 35µM*; E: /; F: /
C[S+](=O)([O-])N1CCn2ncc(C(=O)Nc3ccc(Cl)cc3Cl)c2C1
  A: /; B: /; C: /; D: -1%[6.33 µM]; E: /; F: /
OCC1(CNCc2ccc(F)cc2)C[C@@H](O)[C@@H](O)C1 (stereo not given in full)
  A: /; B: /; C: /; D: 63%[176 µM]; E: /; F: /
OCC1(CNCc2cccnc2)C[C@@H](O)[C@@H](O)C1 (stereo not given in full)
  A: /; B: /; C: /; D: 20µM*; E: /; F: /
COc1cc(/C=N/NC(=O)c2ccncc2)ccc1OC(=O)c1ccc([N+](=O)[O-])cc1
  A: 6%; B: 0; C: 1%; D: -2%; E: ?; F: -9%[57.5 µM]
O=C(Nc1ccc(Br)cc1)N1CCCCCC1
  A: -55%; B: -19; C: 2%; D: 0%; E: -4%; F: i
COC(=O)C1=C(C)N(Cc2ccccc2)C(=S)N[C@H]1c1cccc(C(F)(F)F)c1
  A: 3%; B: 24; C: 17%; D: ?; E: 5%; F: -85%
COC(=O)C1=C(C)N(Cc2ccc(Cl)cc2)C(=S)NC1c1ccc(OC)cc1 (stereo not given)
  A: /; B: /; C: /; D: 40µM*; E: /; F: /
COC(=O)C1=C(C)N(Cc2ccccc2)C(=S)N[C@H]1c1ccc(Br)cc1
  A: 14%; B: 4; C: 1%; D: 45µM*; E: -9%; F: -61%

Screening results from PubChem.
